Usually pIC50 stands for −log10 of the IC50, conventionally taken in molar units.

The source of these data is ChEMBL document CHEMBL1629420, “Structure-cytotoxicity relationship in a series of N-phosphorus substituted E,E-3,5-bis(3-pyridinylmethylene)- and E,E-3,5-bis(4-pyridinylmethylene)piperid-4-ones” (Eur J Med Chem, 2010).

The nature of assay [1]: Cytotoxicity against human multi drug resistant subclone KB 8.5 cells after 72 hrs by MTT assay.
Assay [2] can be described thus: Cytotoxicity against human KB3-1 cells after 72 hrs by MTT assay. Format: functional, cell-based. The conditions noted are these: kb 3-1.
Assay [3] is described as follows: Cytotoxicity against human Caov3 cells after 72 hrs by MTT assay. Type of assay: functional, cell-based. The conditions noted are these: caov-3.
The test system of a further assay is A549. The assay can be described thus: Cytotoxicity against human A549 cells after 72 hrs by MTT assay. Type of assay: functional, cell-based.

The structures appear in SMILES notation. pIC50: −log10 of the molar value.

With `CP(=O)(Oc1ccccc1)N1C/C(=C\c2ccncc2)C(=O)/C(=C/c2ccncc2)C1` (configuration not stated), the pIC50 is 5.15 in assay [1], 5.15 in assay [2], 5.15 in assay [3] and 5.08 with A549.
As to `CCOP(C)(=O)N1C/C(=C\c2cccnc2)C(=O)/C(=C/c2cccnc2)C1` (configuration not stated), the negative logarithm of the IC50 (pIC50) in assay [1] is 4.34; in assay [2], 4.69; in assay [3], 4.97; in the assay with A549, 4.95.
The corresponding values for `CP(=O)(Oc1ccccc1)N1C/C(=C\c2cccnc2)C(=O)/C(=C/c2cccnc2)C1` (configuration not stated) are 5.12, 5.11, 5.03 and 5.12.
